Earlier results on one substance are cited in patent publication US20190060340A1, “NOVEL AMINOGLYCOSIDES AND USES THEREOF IN THE TREATMENT OF GENETIC DISORDERS” (Technion Research & Development Foundation Limited, priority 2007, published 2019).

For the series the following is noted: available toxicity data on aminoglycosides; unit inferred; cited from earlier work.

As usually defined, the LD50 is the dose expected to kill half of the subjects tested. As for neomycin, the LD50 was 24 mg/kg.
